For 1 molecule, IC50 results are on record in patent publication US9260375B2, “Metallo-β-lactamase inhibitors” (priority 2005, dated 2016).

Broadly, the IC50 is the concentration that inhibits the measured activity by half. A low value points to greater potency.

The test has as its target T1, VIM-2 (UniProt Q5U7L7).
T1 construct: His tag (C); made in house; host or cells: E. coli DH5α
In words: biochemical. The protocol: The PCR product was integrated into pTrcHis2 TOPO vector (Invitrogen), and then introduced into E. coli DH5α (TOYOBO) for culture under the induction of 0.5 mM Isopropyl-β-D-(−)-thiogalactopyranoside (Wako) at 37° C. for 3 h to express IMP-1. After recovering the bacterial cells, the periplasmic fraction was extracted by ocmotic shock with sucrose to refine the IMP-1 by Ni-NTA Slurry (QIAGEN) with the His tag at the C-terminus.
In order to determine the inhibitory activity of metallo-β-lactamase, a 50 mM HEPES (pH 7.5) buffer (referred to hereinafter as “buffer”) was used, and nitrocefin (Oxoid) with the final concentration of 100 μM was used as a substrate. A test drug (material to be tested: compound having an Example Number shown in Table 2) was added to each well of a 96-well plate, into which nitrocefin was added and mixed. Then, IMP-1 or VIM-2 was added to each well in the final concentration of 1 nM or 1.5 nM, respectively to react the mixture at room temperature for 20 min. In this case, ZnSO4 was added in the final concentration of 100 μM in order to exclude the inhibitory effect by the chelate effect. Enzyme inhibiting activity was determined by measuring the hydrolysis activity of nitrocefin at a wave length of 490 nm with ARVOsx microplate reader (Wallac).

SMILES strings stand for the structures.

`CC/C(C(=O)O)=C(\CC)C(=O)O` [Example 4, 2,3-diethylmaleic acid disodium] gave an IC50 of 13 µM. This counts as double-digit micromolar.
